Values quoted from earlier work, collected in patent US20050100577A1, “Expandable medical device with beneficial agent matrix formed by a multi solvent system” (priority 2003, published 2005).

Settings: cited from earlier work

## insulin
  water solubility: about 20 mg/ml
